Assays:
[1] = target: recombinant human Meningioma Expressed Antigen 5 (MGEA5), also referred to as O-GlcNAcase (OGA) (Homo sapiens, UniProt O60502); assay: OGA biochemical assay: inhibition of FM-GlcNAc hydrolysis, fluorescence; protocol A (10 nM OGA, 1 h) or protocol B (2 nM OGA, 6 h)
OGA = OGA (Homo sapiens, UniProt O60502); assay: OGA cellular assay: immunocytochemical detection of O-GlcNAcylated proteins in HEK293 cells inducible for P301L mutant human Tau; type: cell-based; details: 6 hours incubation; for Cellular Emax (%): maximum = Thiamet G 200 uM
[2] = Enzymatic protocol B (2 nM OGA, 6 h)
[3] = Enzymatic protocol A (10 nM OGA, 1 h)

Amino acid sequences for entries named in this document (tags omitted).
UniProt O60502, whole entry: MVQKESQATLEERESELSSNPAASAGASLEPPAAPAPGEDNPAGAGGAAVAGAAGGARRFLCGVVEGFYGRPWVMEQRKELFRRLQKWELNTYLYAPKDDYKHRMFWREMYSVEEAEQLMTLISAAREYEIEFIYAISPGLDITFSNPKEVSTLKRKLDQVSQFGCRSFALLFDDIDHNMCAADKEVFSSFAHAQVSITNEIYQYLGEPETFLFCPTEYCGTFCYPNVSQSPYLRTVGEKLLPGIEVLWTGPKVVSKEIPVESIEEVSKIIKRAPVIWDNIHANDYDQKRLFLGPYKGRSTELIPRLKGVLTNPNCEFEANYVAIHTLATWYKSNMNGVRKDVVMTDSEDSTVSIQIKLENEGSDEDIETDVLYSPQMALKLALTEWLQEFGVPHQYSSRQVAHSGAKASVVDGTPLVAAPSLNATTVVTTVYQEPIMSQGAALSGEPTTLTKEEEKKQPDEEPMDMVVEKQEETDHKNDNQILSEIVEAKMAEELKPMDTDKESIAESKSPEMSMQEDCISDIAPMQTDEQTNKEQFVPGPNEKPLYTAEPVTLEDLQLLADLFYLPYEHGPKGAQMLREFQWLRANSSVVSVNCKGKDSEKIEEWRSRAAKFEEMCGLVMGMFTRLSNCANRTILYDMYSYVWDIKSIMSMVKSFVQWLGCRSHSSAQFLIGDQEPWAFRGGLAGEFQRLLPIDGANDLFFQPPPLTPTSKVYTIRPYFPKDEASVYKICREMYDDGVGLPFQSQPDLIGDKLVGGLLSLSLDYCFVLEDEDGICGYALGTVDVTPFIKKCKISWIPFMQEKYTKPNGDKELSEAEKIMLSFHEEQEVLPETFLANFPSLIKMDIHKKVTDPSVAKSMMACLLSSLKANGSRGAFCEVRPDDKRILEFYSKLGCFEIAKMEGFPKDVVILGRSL

Structure (SMILES) | Enzymatic Emax (%) [1, 2] | Enzymatic hOGA; pIC50 [1, 2] | Enzymatic Emax (%) [1, 3] | Enzymatic hOGA; pIC50 [1, 3] | Cellular hOGA; pEC50 (OGA) | Cellular Emax (%) (OGA)
CC(=O)Nc1ncc(CN2CCC[C@@H](c3cc4cc[nH]c4nc3C)C2)s1 | 96.53% | 6.06 | – | – | – | –
CC(=O)Nc1ncc(CN2CCC[C@@H](c3cnc4cc[nH]c4c3)C2)s1 | 97.25% | 6.06 | – | – | – | –
CC(=O)Nc1ncc(CN2CCC[C@H](c3ccnc4cc[nH]c34)C2)s1 | 101.11% | 7.66 | – | – | – | –
CC(=O)Nc1ncc(CN2CCC[C@H](c3cnc4ccn(C)c4c3)C2)s1 | 90.73% | 5.93 | – | – | – | –
CC(=O)Nc1ncc(S(=O)(=O)N2CCO[C@@H](c3cc(C)nc4ncnn34)C2)s1 | – | – | 99.24% | 6.78 | <5 | 8.12%
CC(=O)Nc1ncc(CN2CCCC(c3cc(C)nc4cc[nH]c34)C2)s1 (single isomer, unassigned) | 101.27% | 8.19 | – | – | 8.59 | 99.79%
CC(=O)Nc1ncc(CN2CCCC(c3cc(C)nc4ccn(C)c34)C2)s1 (single isomer, unassigned) | 94.20% | 5.87 | – | – | – | –
CC(=O)Nc1ncc(CN2CCCC(c3ccnc4cc[nH]c34)C2)s1 (single isomer, unassigned) | 76.38% | 5.43 | – | – | – | –
CC(=O)Nc1ncc(CN2CCCC(c3ccnc4ccn(C)c34)C2)s1 (single isomer, unassigned) | 93.19% | 6.09 | – | – | – | –
CC(=O)Nc1ncc(CN2CCCC(c3nc(C)cc4cc[nH]c34)C2)s1 (single isomer, unassigned) | 88.90% | 5.63 | – | – | – | –
CC(=O)Nc1ncc(S(=O)(=O)N2CCOC(c3cc(C)nc4ncnn34)C2)s1 (single isomer, unassigned) | – | – | 106.42% | 8.20 | <5 | 23.67%
CC(=O)Nc1ncc(CN2CCCC(c3nc(C)cc4ccn(C)c34)C2)s1 (single isomer, unassigned) [89] | 102.02% | 7.37 | – | – | – | –
CC(=O)Nc1ncc(CN2CCCC(c3nc(C)cc4ccn(C)c34)C2)s1 (single isomer, unassigned) [90] | 74.60% | 5.42 | – | – | – | –
CC(=O)Nc1ncc(CN2CCCC(Cc3cnc4cc[nH]c4c3)C2)s1 (single isomer, unassigned) [98] | – | 7.42 | – | – | 6.12 | 49.85%
CC(=O)Nc1ncc(CN2CCCC(Cc3cnc4cc[nH]c4c3)C2)s1 (single isomer, unassigned) [99] | 101.31% | 8.96 | – | – | 8.17 | 107.53%
CC(=O)Nc1ncc(CN2CCCC(c3cc4ccn(C)c4nc3C)C2)s1 (single isomer, unassigned) [102] | 88.86% | 5.76 | – | – | – | –
CC(=O)Nc1ncc(CN2CCCC(c3cc4ccn(C)c4nc3C)C2)s1 (single isomer, unassigned) [103] | 100.60% | 8.53 | – | – | 8.24 | 102.71%
